This is an account of results in ChEMBL document CHEMBL3779897, “Novel quinoline-derived mTOR inhibitors with remarkable enzymatic and cellular activities: design, synthesis and biological evaluation” (Medchemcomm, 2016).

The species entered for assay [1] is Homo sapiens. The assay can be described thus: Selectivity ratio, ratio of IC50 for human PI3Kgamma to IC50 for human mTOR.
The species entered for assay [2] is Homo sapiens. The assay can be described thus: Selectivity ratio, ratio of IC50 for PI3Kbeta (unknown origin) to IC50 for human mTOR.
The species entered for assay [3] is Homo sapiens. The assay can be described thus: Selectivity ratio, ratio of IC50 for PI3Kdelta (unknown origin) to IC50 for human mTOR.
The species entered for assay [4] is Homo sapiens. The assay can be described thus: Selectivity ratio, ratio of IC50 for human recombinant PI3Kalpha to IC50 for human mTOR.

The structures appear in SMILES notation.

For `CC(=O)Nc1cnc2ccc(-c3cnc4ccccc4c3)cc2c1Nc1ccc(N2CCN(C(C)=O)CC2)c(C(F)(F)F)c1`, the Ratio IC50 in assay [1] is 17; in assay [2] it was above 167; in assay [3] it was 70; in assay [4], 50.
